Broadly, the IC50 is the concentration at which inhibition is half-maximal.

Protein sequences, listed by entry. Tags and fused reporters are not part of them. Lines headed by an entry give the natural chain unless they say otherwise; changes in a name come on top.
UniProt P56524: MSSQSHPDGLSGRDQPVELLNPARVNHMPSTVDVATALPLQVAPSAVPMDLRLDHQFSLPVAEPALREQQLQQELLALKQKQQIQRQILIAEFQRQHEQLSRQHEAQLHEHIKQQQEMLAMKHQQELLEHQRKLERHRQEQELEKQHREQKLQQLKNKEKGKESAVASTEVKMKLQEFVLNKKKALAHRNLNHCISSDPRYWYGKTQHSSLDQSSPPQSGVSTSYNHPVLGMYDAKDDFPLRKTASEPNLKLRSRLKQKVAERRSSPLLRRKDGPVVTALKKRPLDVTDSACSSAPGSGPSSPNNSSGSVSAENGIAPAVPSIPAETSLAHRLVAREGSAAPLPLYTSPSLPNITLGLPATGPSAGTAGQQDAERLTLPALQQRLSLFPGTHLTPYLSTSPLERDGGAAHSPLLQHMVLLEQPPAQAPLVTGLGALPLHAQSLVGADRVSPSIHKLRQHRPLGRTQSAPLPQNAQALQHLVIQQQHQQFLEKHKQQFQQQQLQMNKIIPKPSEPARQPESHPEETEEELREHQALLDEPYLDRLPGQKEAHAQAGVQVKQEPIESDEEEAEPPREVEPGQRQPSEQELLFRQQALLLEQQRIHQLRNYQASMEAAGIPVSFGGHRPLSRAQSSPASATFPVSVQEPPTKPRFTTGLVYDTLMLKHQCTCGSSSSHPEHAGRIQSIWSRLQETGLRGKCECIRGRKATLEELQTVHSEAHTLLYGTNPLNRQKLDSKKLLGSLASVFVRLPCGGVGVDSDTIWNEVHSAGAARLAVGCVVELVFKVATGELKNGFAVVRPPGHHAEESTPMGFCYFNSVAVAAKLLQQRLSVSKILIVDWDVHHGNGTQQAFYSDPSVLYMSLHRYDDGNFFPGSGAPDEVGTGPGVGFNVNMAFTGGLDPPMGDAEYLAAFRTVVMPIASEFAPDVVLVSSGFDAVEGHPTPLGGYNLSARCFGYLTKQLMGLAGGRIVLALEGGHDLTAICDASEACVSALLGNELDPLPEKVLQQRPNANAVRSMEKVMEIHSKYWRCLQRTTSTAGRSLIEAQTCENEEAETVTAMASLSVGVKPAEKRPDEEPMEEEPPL

For one compound, IC50 results are on record in ChEMBL document CHEMBL5113527, “First-in-Class Hydrazide-Based HDAC6 Selective Inhibitor with Potent Oral Anti-Inflammatory Activity by Attenuating NLRP3 Inflammasome Activation” (J Med Chem, 2022).

This assay concerns the target Histone deacetylase 4 (Homo sapiens, UniProt P56524). In words: Inhibition of recombinant HDAC4 (unknown origin) using Boc-Lys (trifluoroacetyl) AMC as substrate preincubated for 1 hr followed by substrate addition and measured after 2 hrs by fluorescence based microplate reader analysis.

Turning to `CN1CCc2c(c3ccccc3n2Cc2ccc(C(=O)NO)cc2)C1` [TUBASTATIN A], the IC50 was greater than 5 µM.
